Key:
[1] = xn = mol fraction of the nth substance listed; settings: 298.15 K, 101 kPa, Liquid
[2] = refractive index (Na D-line) (dimensionless); xn = mol fraction of the nth substance listed; settings: 298.15 K, 101 kPa, Liquid, Standard Abbe refractometry

CCCCOCCCC [dibutyl ether] + CC(C)CC(C)(C)C
Settings | mass density, [1] [kg/m3] | refractive index, [2]
x1 = 0.0497 | 692.1 | 1.38937
x1 = 0.1 | 696.09 | 1.38978
x1 = 0.1996 | 703.9 | 1.39059
x1 = 0.3 | 711.73 | 1.39139
x1 = 0.4001 | 719.45 | 1.39217
x1 = 0.5005 | 727.17 | 1.39296
x1 = 0.6003 | 734.81 | 1.39376
x1 = 0.7 | 742.31 | 1.39449
x1 = 0.8 | 749.75 | 1.39521
x1 = 0.9 | 757.11 | 1.39589
x1 = 0.95 | 760.7 | 1.39621

— the NIST ThermoML archive (doi:10.1021/je900496t)
